Where two headings read alike, the source gives them in different places.
Key:
B16 melanoma = assay: In vitro cytotoxicity, MTT assay, B16; assay type: cell-based, mouse
DNA synthesis = DNA synthesis ([α-32P]dATP incorporation) in Xenopus egg extracts; assay type: biochemical; settings: [α-32P]dATP incorporation after 3 h; read-out: Inhibition of DNA synthesis IC50
[1] = test system: T-lymphoblastic leukemia cell line CEM; assay: In vitro cytotoxicity, MTT assay, CEM; assay type: cell-based, Human; settings: 72 hours
IκB-α = IκB-α kinase inhibition, in vitro kinase assay; assay type: biochemical
[2] = test system: normal human lymphocytes, mitogen activated proliferation; assay: Mitogen (concanavalin A) activated proliferation of lymphocytes, 3H-thymidine incorporation; assay type: cell-based; settings: 72 hours
[3] = test system: normal human lymphocytes, spontaneous proliferation; assay: Spontaneous proliferation of lymphocytes, 3H-thymidine incorporation; assay type: cell-based; settings: 72 hours, unstimulated lymphocytes

Molecule | IC50 (B16 melanoma; Mus musculus, B16, 72 hours) [µM] | IC50 (DNA synthesis) [µM] | IC50 [1] [µM] | IC50 (IκB-α) [nM] | IC50 [2] [µM] | IC50 [3] [µM] | IC50 (B16 melanoma; 72 hours) [µM] | IC50 (IκB-α; unit nM printed beside the value) [nM]
CC(C)[C@H](CO)Nc1nc(Nc2cccc(Cl)c2)c2nc(F)n(C(C)C)c2n1 | 3.5 | – | – | – | – | – | – | –
CC[C@H](CO)Nc1nc(NCc2ccccc2)c2nc(F)n(C(C)C)c2n1 | – | 2.4 | – | – | – | – | – | –
OLOMOUCINE [reference compound] | – | 15 | 70 | 15400 | 72.1 | 245 | 85.4 | –
PURVALANOL A [reference compound] | – | – | 2.4 | – | 5.7 | 158 | 3.5 | 11.2
